According to patent US20110117106A1, “USES OF CALPAIN INHIBITORS TO INHIBIT INFLAMMATION” (priority 2008, published 2011):

Tests used:
calpain = test: Calpain assay with cell permeable fluorogenic calpain substrate (Boc-LM-CMAC); format: cell-based, human; conditions: 1HAEo- cells and SAEC stimulated with heat killed PAO1 or P3C
Procedure: Confluent monolayers of 1HAEo-cells or SAECs were loaded with 20 μM t-BOC-L-leucine-L-methionine amide (Boc-LM-CMAC), a calpain specific membrane permeable fluorogenic substrate. Cells were stimulated with heat killed PAO1 (10^7 CFU) or P3C (15 μg/ml) and fluorescence was quantified at ex 360 nm and em 465 nm with a Spectrafluor Plus fluorimeter (Tecan).

[1] = tested on: E-cadherin cleavage by calpain (100 kDa E-cadherin cleavage product); test: E-cadherin cleavage: immunoblot in 1HAEo- cells; format: cell-based, human; conditions: cells stimulated with heat-killed PAO1 or P3C, 4 hr
Procedure: 1HAEo-cells or SAECs were grown to confluence on 10 cm plates, stimulated with heat killed PAO1 (10^7 CFU) or P3C (15 μg/ml), and whole cell lysates made using 60 mM n-octyl-β-D-glucopyranoside (OGP) in TBS (0.1 M Tris-HCl and 0.15 M NaCl, pH 7.8) containing Complete Mini protease inhibitor tablets (Roche), 1 mM sodium orthovanadate and 100 mM sodium fluoride. Monoclonal anti-E-cadherin (BD Pharmingen), polyclonal anti-pan calpain (Santa Cruz Biotechnologies) or monoclonal anti-occludin (Invitrogen/Zymed) antibodies were used for immunoprecipitations followed by the addition of Protein G Agarose beads (Invitrogen) (Chun and Prince, 2006). Immunodetection was performed using monoclonal anti-E-cadherin, polyclonal anti-occludin, anti-pan calpain, anti-calpain 1 and anti-calpain 2 antibodies (Santa Cruz Biotechnology).

**Q.** How did the “Calpain activity (accumulation of fluorogenic calpain substrate) in presence of inhibitor” value (calpain) turn out when CCCC[C@@H](C=O)NC(=O)[C@H](CC(C)C)NC(=O)OCc1ccccc1 [calpeptin, Z-Leu-Nle-CHO] was run?
**A.** inhibited

**Q.** What about the “Generation of 100 kDa E-cadherin cleavage product in presence of inhibitor” value [1] of the same molecule?
**A.** substantially decreased
